Test results from patent US20150080465A1 (priority 2013, published 2015).

What was measured:
[1] = test system: monocrotaline (MCT)-induced pulmonary arterial hypertension; experiment: Rat model of monocrotaline (MCT)-induced pulmonary arterial hypertension; type: in vivo
ETA and ETB receptors = experiment: Rat 5/6 nephrectomy model of chronic renal failure, endothelin receptor expression in kidney; conditions: 5/6 nephrectomy rats, 2 mg/kg once daily 12 weeks
[2] = test system: diabetes-associated atherosclerosis; conditions: cited from earlier work
[3] = test system: NQO1 in Hepa1c1c7 murine hepatoma cells; experiment: NQO1 induction; type: cell-based

Structure (SMILES) | Lung histology effect compared with positive control ([1]; 10 mg/kg, 21 days) | Pulmonary edema ([1]; 10 mg/kg/day, 21 days) | Expression of pro-inflammatory NF-κB target genes in rat lung ([1]; 2, 10 or 30 mg/kg/day) | mRNA expression of antioxidative Nrf2 target genes in rat lung ([1]; 2, 10 or 30 mg/kg/day) | MCT-induced microscopic changes in the lung (arteriolar hypertrophy, pulmonary edema, cell and fibrin infiltrates) ([1]; 2, 10 or 30 mg/kg/day, 21 days, all dose levels) | Induction of the ETA receptor in kidney (ETA and ETB receptors) | Reduced expression of the ETB receptor in kidney (ETA and ETB receptors) | Lesion deposition within the aortic sinus ([2]; in vivo) | Plaque in the arch, thoracic, and abdominal regions of the aorta ([2]; inverse dose-dependent manner) | NQO1 CD (concentration required to induce a two-fold increase in the expression of NQO1) [3] [nM]
CC1(C)CC[C@]2(C(=O)NCC(F)(F)F)CC[C@]3(C)[C@H](C(=O)C[C@@H]4[C@@]5(C)C=C(C#N)C(=O)C(C)(C)[C@@H]5CC[C@]43C)[C@@H]2C1 | as effective as the positive control sildenafil | completely abrogated | decrease in expression | dose-dependent and significant induction | inhibited microscopic changes | completely suppressed | partially reversed | attenuate lesion deposition | reduce plaque | 
CC1(C)CC[C@]2(C#N)CC[C@]3(C)[C@H](C(=O)C=C4[C@@]5(C)C=C(C#N)C(=O)C(C)(C)[C@@H]5CC[C@]43C)[C@@H]2C1 |  |  |  |  |  |  |  |  |  | 0.28
